# Reference: PubChem BioAssay AID743266 (National Center for Advancing Translational Sciences (NCATS), 2014)
# By UniProt entry, the sequences of proteins in these tests, tags left out. Where a name states a change or a piece, a line headed by the entry shows the natural chain unless it says otherwise.
# UniProt Q03431: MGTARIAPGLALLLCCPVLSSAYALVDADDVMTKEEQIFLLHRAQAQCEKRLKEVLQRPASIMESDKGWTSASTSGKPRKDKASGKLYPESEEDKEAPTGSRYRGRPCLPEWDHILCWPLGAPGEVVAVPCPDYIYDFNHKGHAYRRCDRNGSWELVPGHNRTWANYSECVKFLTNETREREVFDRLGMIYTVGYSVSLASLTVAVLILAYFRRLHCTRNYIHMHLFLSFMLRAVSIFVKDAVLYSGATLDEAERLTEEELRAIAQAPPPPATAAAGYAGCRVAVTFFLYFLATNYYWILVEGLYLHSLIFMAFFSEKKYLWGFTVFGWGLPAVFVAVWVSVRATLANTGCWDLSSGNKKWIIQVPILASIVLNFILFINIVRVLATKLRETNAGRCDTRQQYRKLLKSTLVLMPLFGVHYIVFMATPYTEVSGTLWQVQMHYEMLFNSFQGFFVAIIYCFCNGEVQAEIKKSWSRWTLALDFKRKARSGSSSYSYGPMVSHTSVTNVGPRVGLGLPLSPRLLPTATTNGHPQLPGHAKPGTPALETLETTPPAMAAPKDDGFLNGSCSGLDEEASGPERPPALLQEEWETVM
# Only a part is listed here, and it is no random draw. Calls of active or inactive are those of the source. Calls come from the whole dose curve; as a rule, active = well fitted activation curve with a large enough effect; inconclusive = small, poorly fitted or top-dose-only effect, or another doubt; inactive = no such curve, though single readings can be large or run the other way.
# Target: Parathyroid hormone/parathyroid hormone-related peptide receptor (Homo sapiens) (UniProt Q03431)
# Assay: qHTS for PTHR1 Agonists: Primary Screen; note: nearly all actives have a fitted effect of over 55% in size
# Conditions: HEK293 GP2 PTHR1 cells, GloSensor cAMP luminescence, 1 h; activation: at 115 µM (top of the series) unless noted
Compound,activation,outcome
O=P(Nc1nccs1)(c1ccccc1)c1ccccc1,inactive: -13.4% [at 57.5 µM],
CC(C)C(=O)NC(Sc1ccccc1)C(Cl)(Cl)Cl (centres undefined),inactive,
c1nnnn1CCn1cnnn1,inactive,
COc1ccc(N)c([N+](=O)[O-])c1[N+](=O)[O-],inactive,
Nc1ccc(CCCCOc2ccccc2)cc1,inactive: -48.8%,
CN(C)C1(CNC(=O)c2ccc(Cl)c(S(N)(=O)=O)c2)CCCCC1,inactive,
O=P(Nc1ccccn1)(c1ccc(Br)cc1)c1ccc(Br)cc1,inactive: -13.3%,
O=P(Nc1nc2ccccc2s1)(c1ccccc1)c1ccccc1,inactive: -4.02%,
C[C@H]1OP(=O)(Oc2ccccc2)[C@H](O)[C@H](O)[C@H]1N=[N+]=[N-] (some centres undefined),inactive: -22.8%,
CC(=O)NC(SC(=S)N(C)C)C(Cl)(Cl)Cl (centres undefined),inactive,
O=[N+]([O-])c1ncn(CCn2cnc([N+](=O)[O-])n2)n1,inactive,
O=[N+]([O-])c1ccc(O)c(/C=N/Nc2ccc([N+](=O)[O-])cc2[N+](=O)[O-])c1,inactive,
O=[As](O)(c1ccccc1)c1ccc(O)cc1,inactive,
C(Cc1nn[nH]n1)Cc1nn[nH]n1,inactive,
Nc1ccc([As](=O)(O)c2ccc([N+](=O)[O-])cc2)cc1,inactive,
O=C(OC1CN2CCC1CC2)c1cccc(Cl)c1 (centres undefined),,inactive [at 57.5 µM]
O=C(NC1CCS(=O)(=O)C1)NP(=S)(Oc1ccccc1)Oc1ccccc1 (centres undefined),inactive,
CCNC(=S)/N=C(\N)N[N+](=O)[O-],inactive,
c1ccc(-c2nn[nH]n2)c(-c2nn[nH]n2)c1,inactive: -46.2%,
Cc1ccc(NP(=O)(Oc2cccc(C)c2)Oc2cccc(C)c2)nc1,inactive,
O=P1(N(CCCl)CCCl)OCCC2CCCCN21 (centres undefined),inactive,
COC(=O)c1cc2c(s1)N=C(c1ccccc1)N(C)P2(=O)N1CCOCC1 (centres undefined),,inactive [at 57.5 µM]
CC(=O)NC(SC(=S)N(CC(C)C)CC(C)C)C(Cl)(Cl)Cl (centres undefined),inactive,
Cc1ccc(OP(=O)(Nc2ccccn2)Oc2ccc(C)cc2)cc1,inactive: -37.1%,
O=C(OC1CN2CCC1CC2)c1ccccc1 (centres undefined),inactive,
CCC(=O)N1C2C3N(C(=O)CC)C1C1N(C(=O)CC)C(C(N1C(=O)CC)N3C(=O)CC)N2C(=O)CC,inactive: -18.8% [at 57.5 µM],
CC(NC(=O)COC(=O)C(O)(c1ccccc1)c1ccccc1)c1ccccc1 (centres undefined),inactive: -75%,
Cc1ccccc1OP(=O)(Nc1ccccn1)Oc1ccccc1C,inactive: -40.2%,
O=c1c2cc([N+](=O)[O-])ccc2[nH]c2c([N+](=O)[O-])cc([N+](=O)[O-])cc12,inactive: -21.7%,
